Data on 1 molecule can be found in patent US10960087B2, “Compositions and methods for treatment of diabetic retinopathy” (NOVARTIS AG, priority 2007, dated 2021).

Protein sequences, listed by entry. Tags and fused reporters are not part of them. Residues count along the entry.
UniProt P05107, 23-769: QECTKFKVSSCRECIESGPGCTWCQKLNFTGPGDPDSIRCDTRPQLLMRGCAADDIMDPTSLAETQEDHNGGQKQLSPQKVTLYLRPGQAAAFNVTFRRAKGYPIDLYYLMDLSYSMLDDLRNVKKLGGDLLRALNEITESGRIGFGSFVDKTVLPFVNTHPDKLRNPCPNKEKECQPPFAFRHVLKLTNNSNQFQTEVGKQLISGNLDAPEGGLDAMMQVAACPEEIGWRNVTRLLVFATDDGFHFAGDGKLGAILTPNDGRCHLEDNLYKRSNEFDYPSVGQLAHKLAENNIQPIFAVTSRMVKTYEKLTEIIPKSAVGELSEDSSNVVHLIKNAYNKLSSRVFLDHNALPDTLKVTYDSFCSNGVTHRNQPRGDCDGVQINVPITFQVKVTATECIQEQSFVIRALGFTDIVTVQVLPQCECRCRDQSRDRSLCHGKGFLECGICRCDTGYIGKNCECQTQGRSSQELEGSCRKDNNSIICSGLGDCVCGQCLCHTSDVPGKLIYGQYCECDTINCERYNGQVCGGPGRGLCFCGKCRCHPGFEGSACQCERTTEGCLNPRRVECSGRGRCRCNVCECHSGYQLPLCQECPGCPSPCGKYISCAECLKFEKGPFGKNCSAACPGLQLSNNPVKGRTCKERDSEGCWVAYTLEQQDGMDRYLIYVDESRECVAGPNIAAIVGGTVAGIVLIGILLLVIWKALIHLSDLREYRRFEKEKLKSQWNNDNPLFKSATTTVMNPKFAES
UniProt P20701, 26-1170: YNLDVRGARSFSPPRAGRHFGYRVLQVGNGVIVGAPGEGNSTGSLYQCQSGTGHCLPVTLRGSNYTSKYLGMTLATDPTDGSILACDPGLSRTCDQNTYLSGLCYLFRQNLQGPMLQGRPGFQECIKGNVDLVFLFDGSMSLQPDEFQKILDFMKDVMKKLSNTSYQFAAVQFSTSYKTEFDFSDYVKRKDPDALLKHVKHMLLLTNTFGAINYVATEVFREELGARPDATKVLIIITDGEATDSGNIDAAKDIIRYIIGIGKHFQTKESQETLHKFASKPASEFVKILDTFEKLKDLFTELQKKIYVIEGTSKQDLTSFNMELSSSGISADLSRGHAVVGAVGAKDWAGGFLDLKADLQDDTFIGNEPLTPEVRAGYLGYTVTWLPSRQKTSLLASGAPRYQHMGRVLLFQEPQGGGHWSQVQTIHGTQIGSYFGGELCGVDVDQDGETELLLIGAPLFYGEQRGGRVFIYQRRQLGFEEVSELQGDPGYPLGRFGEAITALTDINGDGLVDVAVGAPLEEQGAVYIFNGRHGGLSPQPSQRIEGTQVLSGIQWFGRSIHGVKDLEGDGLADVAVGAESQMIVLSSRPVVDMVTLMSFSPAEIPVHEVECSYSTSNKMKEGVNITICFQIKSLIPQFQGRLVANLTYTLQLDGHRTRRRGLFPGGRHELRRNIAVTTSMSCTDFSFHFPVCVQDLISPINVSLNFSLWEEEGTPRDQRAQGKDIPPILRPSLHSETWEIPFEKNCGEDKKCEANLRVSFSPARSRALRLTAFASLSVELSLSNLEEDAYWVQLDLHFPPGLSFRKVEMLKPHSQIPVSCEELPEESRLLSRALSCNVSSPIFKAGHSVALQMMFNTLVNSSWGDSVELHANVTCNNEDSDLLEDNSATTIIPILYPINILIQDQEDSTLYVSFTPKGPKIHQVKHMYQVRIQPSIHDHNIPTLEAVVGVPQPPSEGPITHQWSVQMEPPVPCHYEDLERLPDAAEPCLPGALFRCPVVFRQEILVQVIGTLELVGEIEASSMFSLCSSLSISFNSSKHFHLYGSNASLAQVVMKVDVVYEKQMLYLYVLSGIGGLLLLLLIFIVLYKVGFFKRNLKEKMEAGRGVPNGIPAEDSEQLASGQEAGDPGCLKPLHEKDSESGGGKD

What is called IC50 is the concentration at which inhibition is half-maximal.

Test [1] has as its target T1, binding of compound 2B to LFA-1 (Homo sapiens, UniProt P05107+P20701). Description: LFA-1/small molecule ELISA, antagonist competition. The following applies: read-out: IC50, inhibition of binding of compound 2B to LFA-1, 25 nM compound 2B.
The target in test [2] is T1, binding of compound 2B to LFA-1. Description: LFA-1/small molecule ligand binding ELISA. The following applies: increasing antagonist concentrations. Background: In an ELISA, binding on a coated surface is turned into a signal by an enzyme label.

B1: sICAM-1: soluble ICAM-1, molecular form of the natural ligand of LFA-1 (protein)
chain: QTSVSPSKVILPRGGSVLVTCSTSCDQPKLLGIETPLPKKELLLPGNNRKVYELSNVQEDSQPMCYSNCPDGQSTAKTFLTVYWTPERVELAPLPSWQPVGKNLTLRCQVEGGAPRANLTVVLLRGEKELKREPAVGEPAEVTTTVLVRRDHHGANFSCRTELDLRPQGLELFENTSAPYQLQTFVLPATPPQLVSPRVLEVDTQGTVVCSLDGLFPVSEAQVHLALGDQRLNPTVTYGNDSFSAKASVSVTAEDEGTQRLTCAVILGNQSQETLQTVTIYSFPAPNVILTKPEVSEGTEVTVKCEAHPRAKVTLNGVPAQPLGPRAQLLLKATPEDNGRSFSCSATLEVAGQLIHKNQTRELRVLYGPRLDERDCPGNWTWPENSQQTPMCQAWGNPLPELKCLKDGTFPLPIGESVTVTRDLEGTYLCRARSTQGEVTRKVTVNVLSPRYE
In the case of B1, the IC50 in test [1] stood at 1200 nM. Also, the “Effect on compound 2B binding curves” value in test [2] is “also showed a similar effect”.
